Source: US7572799B2, “Pyrazolo[4,3-d]pyrimidines as Phosphodiesterase Inhibitors” (Pfizer Inc, priority 2003, dated 2009)

Biological target: PDE-5 (UniProt O76074)
Test: In vitro PDE inhibitory activity against PDE5 (batch method or scintillation proximity assay)
Format: biochemical, human
Conditions: representative compounds

| SMILES | IC50 |
| --- | --- |
| CCOCCn1nc(C(=O)O)c2nc(N(C)C)nc(NC3CCCCC3)c21 | 86.6 nM |
| CCOCCn1nc(C(=O)O)c2nc(N3CCCC3)nc(NC3CCCCC3)c21 | 94.7 nM |
| CCOCCn1nc(C(=O)NS(C)(=O)=O)c2nc(N(C)CCOC)nc(Nc3cc(C)ccn3)c21 | 4.68 nM |
| Cc1ccnc(Nc2nc(N(C)C(C)C)nc3c(C(=O)O)nn(CCOC4CCC4)c23)c1 | 0.776 nM |
| CCN(C)c1nc(Nc2ccc(F)c(C)c2)c2c(n1)c(C(=O)NS(C)(=O)=O)nn2CCOCC(F)(F)F | 0.056 nM |
| CCOCCn1nc(C(=O)O)c2nc(N(C)C(C)C)nc(NC3CCCCC3)c21 | 17.9 nM |
| CCN(C)c1nc(Nc2cc(C)ccn2)c2c(n1)c(C(=O)NS(C)(=O)=O)nn2CCOC1CCC1 | 0.591 nM |
| CCOCCn1nc(C(=O)NS(C)(=O)=O)c2nc(N(C)CC)nc(Nc3cccc(C)c3)c21 | 0.198 nM |
| CCOCCn1nc(C(=O)NS(C)(=O)=O)c2nc(N(CC)CC)nc(Nc3cc(C)ccn3)c21 | 0.513 nM |
| Cc1ccnc(Nc2nc(N(C)C(C)C)nc3c(C(=O)NS(C)(=O)=O)nn(CCOC4CCC4)c23)c1 | 0.324 nM |
| CCOCCn1nc(C(=O)NS(=O)(=O)CC)c2nc(N(CC)CC)nc(Nc3cc(C)ccn3)c21 | 0.162 nM |
| CCCN(C)c1nc(Nc2cc(C)ccn2)c2c(n1)c(C(=O)NS(C)(=O)=O)nn2CCOCC | 1.55 nM |
| CCOCCn1nc(C(=O)NS(=O)(=O)CC)c2nc(N(C)C)nc(Nc3cc(C)ccn3)c21 | 1.16 nM |
| CCOCCn1nc(C(=O)O)c2nc(N(CC)CC)nc(NC3CCCCC3)c21 | 8 nM |
| CCOCCn1nc(C(=O)O)c2nc(N(C)CC)nc(NC3CCCCC3)c21 | 17.4 nM |
| CCNc1nc(NC2CCCCC2)c2c(n1)c(C(=O)O)nn2CCOCC | 47.1 nM |
| CCOCCn1nc(C(=O)NS(=O)(=O)CC)c2nc(N(C)CC)nc(Nc3cc(C)ccn3)c21 | 0.341 nM |
| CCN(C)c1nc(Nc2cc(C)ccn2)c2c(n1)c(C(=O)O)nn2CCOC1CCC1 | 2.54 nM |
| CCN(C)c1nc(Nc2cccc(C)c2)c2c(n1)c(C(=O)NS(C)(=O)=O)nn2CCOCC(F)(F)F | 0.101 nM |
| CCN(C)c1nc(Nc2cc(C)ccn2)c2c(n1)c(C(=O)NS(C)(=O)=O)nn2CCOCC(F)F | 2.88 nM |
